# Key:
# Protein sequences, listed by entry. Tags and fused reporters are not part of them. Lines headed by an entry give the natural chain unless they say otherwise; changes in a name come on top.
# UniProt Q96S37: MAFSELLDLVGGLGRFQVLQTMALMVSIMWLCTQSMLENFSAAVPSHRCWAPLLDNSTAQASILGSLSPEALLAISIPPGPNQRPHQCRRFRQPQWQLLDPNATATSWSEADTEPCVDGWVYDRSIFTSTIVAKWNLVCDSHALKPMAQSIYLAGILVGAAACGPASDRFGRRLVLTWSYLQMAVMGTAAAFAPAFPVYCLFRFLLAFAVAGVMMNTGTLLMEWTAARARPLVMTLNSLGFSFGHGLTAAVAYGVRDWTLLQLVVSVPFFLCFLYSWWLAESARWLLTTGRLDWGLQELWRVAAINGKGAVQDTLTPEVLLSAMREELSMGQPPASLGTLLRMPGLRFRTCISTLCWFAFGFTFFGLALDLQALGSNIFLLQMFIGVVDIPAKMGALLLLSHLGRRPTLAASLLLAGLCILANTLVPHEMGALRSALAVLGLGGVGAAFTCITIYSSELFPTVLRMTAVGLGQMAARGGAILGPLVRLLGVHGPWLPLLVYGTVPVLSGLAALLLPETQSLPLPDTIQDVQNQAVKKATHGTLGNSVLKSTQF
# Type in all cases: cell-based
# [1] = target: URAT1 (Homo sapiens, UniProt Q96S37); experiment: [14C]-urate uptake by URAT1-expressing Xenopus oocytes
# From the text: (§1) For uptake experiments, oocytes were washed four times with ND96 medium (pH 7.4) without pyruvate and gentamycin.
# [2] = target: T1, OAT3 (Mus musculus, UniProt O88909); experiment: [14C]-urate uptake by OAT3-expressing Xenopus oocytes
# T1 sequence (O88909 1-537): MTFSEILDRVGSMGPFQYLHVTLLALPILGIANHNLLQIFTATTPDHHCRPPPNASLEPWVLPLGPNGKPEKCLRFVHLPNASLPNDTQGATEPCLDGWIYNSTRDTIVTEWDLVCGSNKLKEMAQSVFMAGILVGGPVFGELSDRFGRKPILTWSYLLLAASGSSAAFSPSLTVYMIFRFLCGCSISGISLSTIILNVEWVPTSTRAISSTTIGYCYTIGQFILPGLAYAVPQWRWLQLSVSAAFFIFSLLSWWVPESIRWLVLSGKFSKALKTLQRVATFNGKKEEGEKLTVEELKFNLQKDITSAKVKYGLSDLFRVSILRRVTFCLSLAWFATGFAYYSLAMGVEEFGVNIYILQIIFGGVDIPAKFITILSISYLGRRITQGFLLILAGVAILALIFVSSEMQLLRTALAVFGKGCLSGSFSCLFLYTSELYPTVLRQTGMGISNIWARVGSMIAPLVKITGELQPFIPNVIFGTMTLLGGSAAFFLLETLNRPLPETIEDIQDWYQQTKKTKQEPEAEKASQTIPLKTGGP
# Method: as §1
# The uptake of [^14C]‐urate (40 μmol/L) was performed in ND96 medium (pH 7.4) at ~25°C for 1 h.
# [3] = target: T2, OAT4 (Homo sapiens, UniProt Q9NSA0); experiment: [14C]-urate uptake by OAT4-expressing Xenopus oocytes
# T2 sequence (Q9NSA0 1-550): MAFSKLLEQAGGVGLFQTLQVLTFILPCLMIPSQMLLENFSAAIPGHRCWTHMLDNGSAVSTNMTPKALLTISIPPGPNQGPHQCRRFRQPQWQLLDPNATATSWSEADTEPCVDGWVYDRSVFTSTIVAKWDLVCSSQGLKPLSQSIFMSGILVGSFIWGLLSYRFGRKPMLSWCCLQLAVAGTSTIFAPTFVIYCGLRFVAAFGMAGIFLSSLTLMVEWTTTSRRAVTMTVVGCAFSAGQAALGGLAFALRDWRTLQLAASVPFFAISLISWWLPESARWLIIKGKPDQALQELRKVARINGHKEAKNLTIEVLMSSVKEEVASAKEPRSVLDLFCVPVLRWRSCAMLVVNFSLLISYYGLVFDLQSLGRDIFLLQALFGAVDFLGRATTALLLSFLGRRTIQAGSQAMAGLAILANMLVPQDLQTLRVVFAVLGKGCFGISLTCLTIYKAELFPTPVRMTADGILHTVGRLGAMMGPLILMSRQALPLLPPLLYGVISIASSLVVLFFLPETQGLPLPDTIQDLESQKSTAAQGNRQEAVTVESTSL
# Method: as §1
# (A) The uptake of [^14C]‐urate by OAT4‐expressing oocytes was performed in ND96 medium (pH 7.4) at ~25°C for 1 h. Na^+‐dependence was examined by replacing extracellular NaCl by KCl. […] (B) The inhibition of [^14C]‐urate uptake by OAT4 was examined in the presence of extracellular organic anions (for cis‐inhibition) or uricosuric drugs at the indicated concentrations. […] Data are mean ± S.E. with n = 12–15.
substance,measurement,setting,value
α‐ketoglutarate [α‐KG],cis-inhibition of URAT1-mediated urate uptake by extracellular organic anion,[1],not cis‐inhibited
same,Effect of preloaded intracellular anion on OAT3 [14C]-urate uptake (trans-stimulation),[2],not trans‐stimulated
same,"cis-inhibition of OAT4-mediated, maleate trans-stimulated urate uptake",[3]; 10 mM extracellular anion,much less cis‐inhibition
same,trans-stimulatory effect of preloaded anion on OAT4-mediated urate uptake,[3]; preinjected 50 nL of 100 mmol/L,no significant effects

# Source: paper PMC5368959, “Uricosuric targets of tranilast” (Pharmacology Research & Perspectives, 2017)
